Chains of the proteins cited; added tags and fusions are not shown.
UniProt P23975, whole entry: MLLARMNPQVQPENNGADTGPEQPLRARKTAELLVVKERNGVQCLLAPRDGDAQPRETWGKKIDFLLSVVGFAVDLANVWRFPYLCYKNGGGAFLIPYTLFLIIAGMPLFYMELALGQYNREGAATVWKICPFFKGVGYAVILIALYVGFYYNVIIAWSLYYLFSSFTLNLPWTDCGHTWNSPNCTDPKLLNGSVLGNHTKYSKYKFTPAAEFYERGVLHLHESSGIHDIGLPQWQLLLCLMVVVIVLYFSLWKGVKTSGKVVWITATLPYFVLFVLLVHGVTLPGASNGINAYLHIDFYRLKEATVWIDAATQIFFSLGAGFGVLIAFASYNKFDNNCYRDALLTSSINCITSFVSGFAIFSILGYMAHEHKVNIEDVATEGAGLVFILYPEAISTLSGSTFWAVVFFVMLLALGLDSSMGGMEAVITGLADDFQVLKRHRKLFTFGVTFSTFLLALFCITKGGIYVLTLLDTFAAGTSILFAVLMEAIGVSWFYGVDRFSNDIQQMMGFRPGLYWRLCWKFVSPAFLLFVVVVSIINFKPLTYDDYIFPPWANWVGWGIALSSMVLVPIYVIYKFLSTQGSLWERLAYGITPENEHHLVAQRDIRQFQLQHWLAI

In US20080200556A1, “Amine Compounds And Inhibiting Neurotrasmitter Reuptake” (MAYO FOUNDATION FOR MEDICAL EDUCATION AND RESEARCH, priority 2004, published 2008):

Assays:
[1] = target: T1, human norepinephrine transporter (hNET) (Homo sapiens, UniProt P23975)
[2] = target: T1, human norepinephrine transporter (hNET); assay: biochemical

Row | SMILES | Kd ([1]; read-out: Kd (nM) hNET) [nM] | Kd [2] [nM] | binding to hNET (in words) [1]
1 | CNCC(c1ccc2ccccc2c1)C(O)c1ccccc1 (racemic) [Compound A, (2RS,3RS)-N-methyl-3-hydroxy-2-(2′-naphthyl)-3-phenylpropylamine, reference compound] | 0.3 | – | –
2 | CN(C)CC(c1ccc2ccccc2c1)C(O)C1CCCCC1 (racemic) [PRC025, (2RS,3SR)-N,N-dimethyl-3-cyclohexyl-3-hydroxy-2-(2′-naphthyl)propylamine] | – | 12.5 | strong binding

Where two headings read alike, the source gives them in different places.
